Measured values reported in US20180280465A1 (EVER Neuro Pharma GmbH, priority 2015, published 2018).

Test system: NIH/3T3 murine fibroblasts
Experiment: Resazurin-fibroblast-assay for assessment of cytotoxicity

CN1CCc2cccc3c2[C@H]1Cc1ccc(O)c(O)c1-3 [apomorphine, (6aR)-6-methyl-5,6,6a,7-tetrahydro-4H-dibenzo[de,g]quinoline-10,11-diol]
cytotoxic effect / viability of cultivated NIH/3T3 cells: time and concentration dependent reduction of viability
